This note sets out measurements from publication PMC8689565 (mBio, 2021).

The data set deals with the molecule itself. Kind of data set: non-reducing gel of immunoprecipitated STING; HT1080 cells with or without 1 h R406 pretreatment, cGAMP for 3 h; IP with STING antibody, nonreducing gel (no DTT in lysate and loading buffer), detected with STING antibody.

B1: STING (natural protein, human (endogenous in HT1080), UniProt Q86WV6 1-379, looked up)
chain: MPHSSLHPSIPCPRGHGAQKAALVLLSACLVTLWGLGEPPEHTLRYLVLHLASLQLGLLLNGVCSLAEELRHIHSRYRGSYWRTVRACLGCPLRRGALLLLSIYFYYSLPNAVGPPFTWMLALLGLSQALNILLGLKGLAPAEISAVCEKGNFNVAHGLAWSYYIGYLRLILPELQARIRTYNQHYNNLLRGAVSQRLYILLPLDCGVPDNLSMADPNIRFLDKLPQQTGDHAGIKDRVYSNSIYELLENGQRAGTCVLEYATPLQTLFAMSQYSQAGFSREDRLEQAKLFCRTLEDILADAPESQNNCRLIAYQEPADDSSFSLSQEVLRHLRQEEKEEVTVGSLKTSAVPSTSTMSQEPELLISGMEKPLPLRTDFS
notes: precipitated or detected with a STING antibody; cells were transfected with cGAMP; also called endogenous STING; source: endogenous, HT1080 lysate
Turning to B1, the “stoichiometry N” value is 2.

Usually stoichiometry N stands for a count of units in the complex or per binding partner.
